# Results published in PubChem BioAssay AID2130 (The Scripps Research Institute Molecular Screening Center, 2009).
# Amino acid sequences for entries named in this document (tags omitted).
# UniProt Q9Y570, whole entry: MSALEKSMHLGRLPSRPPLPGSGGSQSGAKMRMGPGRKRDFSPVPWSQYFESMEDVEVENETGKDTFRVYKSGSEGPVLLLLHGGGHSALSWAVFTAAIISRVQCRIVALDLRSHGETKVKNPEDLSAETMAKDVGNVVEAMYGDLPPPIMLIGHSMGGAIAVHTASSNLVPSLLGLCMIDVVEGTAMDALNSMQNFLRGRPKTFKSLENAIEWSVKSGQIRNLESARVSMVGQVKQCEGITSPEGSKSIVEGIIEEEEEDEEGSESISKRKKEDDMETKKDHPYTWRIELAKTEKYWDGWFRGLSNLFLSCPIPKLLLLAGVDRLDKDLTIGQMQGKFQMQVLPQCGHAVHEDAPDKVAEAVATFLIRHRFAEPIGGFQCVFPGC
# The list shows a part of the results, in another mix than the full data. Some of these compounds have results that are not shown, active ones among them. Activity calls are given as the source filed them.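 Rule for the calls: active = inhibition above the campaign mean of all compounds plus 3 SD (cut at about 26% in these data); inactive = the rest.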
# Target: Protein phosphatase methylesterase 1 (Homo sapiens) (UniProt Q9Y570)
# Test: human PME-1 methylesterase blockers – biochemical, fluorescence polarization, FP-Rh probe, HTS, primary screen (AID 2130);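 note: competitive labeling of PME-1 active site by serine hydrolase directed probe; 0% = PME-1 with DMSO and 100% = wells lacking PME-1 enzyme; inhibitors block probe labeling so polarization falls and inhibition rises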
# Details: recombinant PME-1, FP-Rh probe fluorescence polarization; at 5.9 µM; active compounds read high
row,SMILES,inhibition
1,CC(C)N1C(=O)CC2(CCN(CCOC(=O)C(O)(c3ccccc3)c3ccccc3)CC2)C1=O,inactive: 4.09%
2,CCN(CC)CC(C)C(C)OC(=O)C(O)(c1ccccc1)c1ccccc1 (centres undefined),inactive: 7.77%
3,COc1cc(SC)ccc1C(=O)NCC1(N(C)C)CCCCC1,inactive: -3.4%
4,Cc1ccc(C(=O)NCC2(N3CCCCC3)CCCCC2)cc1,inactive: -6.03%
5,O=C(NCC1(N2CCCCC2)CCCCC1)c1cc([N+](=O)[O-])ccc1Cl,inactive: -4.89%
6,CN1[C@@H]2CC[C@H]1CC(OC(=O)C(O)(c1ccccc1)c1ccccc1)C2 (some centres undefined),inactive: 3.09%
7,C=CCN1CCN(CCOC(=O)C(O)(c2ccccc2)c2ccccc2)CC1,inactive: 2.68%
8,O=C(NCC1(N2CCCCC2)CCCCC1)c1cc(F)c(F)cc1Cl,inactive: -0.66%
9,CCN1CCCC(OC(=O)C2(O)c3ccccc3C=Cc3ccccc32)C1 (centres undefined),inactive: -0.77%
10,Cc1cc(C(=O)NCC2(N3CCCCC3)CCCCC2)ccc1[N+](=O)[O-],inactive: 4.13%
11,O=C(NCC1(N2CCCCC2)CCCCC1)c1cccc(Br)c1,inactive: 8.57%
12,COc1ccc(C(=O)NCC2(N(C)C)CCCCC2)cc1,inactive: -8.17%
13,Cc1ccccc1C(=O)NCC1(N2CCCCC2)CCCCC1,inactive: 0.77%
14,CN(C)c1ccc(C(=O)NCC2(N(C)C)CCCCC2)cc1,inactive: 3.06%
15,CN(C)C1CCCC1OC(=O)C(O)(c1ccccc1)c1ccccc1 (centres undefined),inactive: 3.5%
16,COc1cccc(C(=O)NCC2(N3CCCCC3)CCCCC2)c1,inactive: 0.04%
17,COc1ccc(Cl)cc1C(=O)NCC1(N(C)C)CCCCC1,inactive: 3.81%
18,O=C(NCC1(N2CCCCC2)CCCCC1)c1cccc(Cl)c1,inactive: 0.2%
19,CN(C)C1(CNC(=O)c2ccc(Br)cc2)CCCCC1,inactive: -0.37%
20,COc1cc(C(=O)NCC2(N(C)C)CCCCC2)c([N+](=O)[O-])cc1OC,inactive: -3.56%
21,COc1ccc(Br)c(C(=O)NCC2(N3CCCCC3)CCCCC2)c1,inactive: -4.38%
22,CN(C)c1cccc(C(=O)NCC2(N(C)C)CCCCC2)c1,inactive: 2.49%
23,CC(C)Oc1ccc(C(=O)NCC2(N(C)C)CCCCC2)cc1,inactive: 7.2%
24,O=C(OC1CN2CCC1CC2)C(CO)(c1ccccc1)c1ccccc1 (centres undefined),inactive: -1.4%
